The record followed here is ChEMBL document CHEMBL1153304, “2,4-Diaminopyridine delta-opioid receptor agonists and their associated hERG pharmacology” (Bioorg Med Chem Lett, 2009).

Test [1] is described as follows: Selectivity for human recombinant DOR over kappa opioid receptor.
Test [2] in a line: Selectivity for human recombinant DOR over mu opioid receptor.

As to `COc1ccc(C(=O)N(c2cc(C)ccn2)C2CCN(c3cc(N)ccn3)CC2)cc1`, the fold change (FC) in test [1] and in test [2] was 50 each time.

With `CC(=O)N(c1ccccc1)C1CCN(c2cc(N)ccn2)CC1`, the fold change (FC) in test [1] and in test [2] was 50 in each case.

Take `COc1cccc(C(=O)N(c2ccccn2)C2CCN(c3cc(N)ccn3)CC2)c1`: the fold change (FC) in test [1] and in test [2] was 50 in each case.

For `Nc1ccnc(N2CCC(N(C(=O)C3CCCCC3)c3ccccn3)CC2)c1`, the fold change (FC) in test [1] and in test [2] was 50 each time.
